Melting point values, as collected for the OPERA models

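These are experimental values that the OPERA curators gathered from public databases to train and test their QSAR models. The files give a single number for a compound and property, which may rest on several reports. Method and conditions are not stated for these values. A value may pool stereoisomers or salt forms, and the file does not say which form was measured. Unmarked limits or estimates from the upstream databases cannot be ruled out.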

Melting points are in °C.
"via" names the databases from which the curators took the value.

structure (SMILES),MP (°C),via
Cc1n[nH]c(C)c1NC(=O)CCl,161,OCHEM
C=CCC1(CC(C)O)C(=O)NC(=O)NC1=O (stereo unspecified),158,OCHEM
O=C(CCl)Nc1ccc(O)cc1,146,OCHEM
CC(C)(C)N(NC(=O)c1ccccc1)C(=O)c1ccccc1C(F)(F)F,172,OCHEM
CC(=O)c1ccc(O)c(CCl)c1,170,OCHEM
CC(C)(C)N(NC(=O)c1ccc(Cl)cc1)C(=O)c1ccccc1,199.2,"OCHEM, PubChem"
O=C(O)c1cn(Cc2ccccc2)nn1,177,OCHEM
Clc1ccccc1-c1cc(Cl)c(Cl)c(Cl)c1Cl,100,QSARDB
CNC(=O)NC(=O)CCl,156,OCHEM
Cc1nnc(NC(=O)CCl)s1,231,OCHEM
CCCCn1nnnc1CCl,17,OCHEM
CCN1CCN(c2ccccc2N)CC1,41,OCHEM
O=C(CCl)c1ccc(Br)cc1,120,OCHEM
CC(C)=CCC1(C)C(=O)NC(=O)NC1=O,193,OCHEM
C=CC(=O)OCCC#N,-16.9,PubChem
CN1CCC(n2nccc2N)CC1,99,OCHEM
COC1=CC2=CC[C@H]3[C@@H]4[C@@H]5C[C@@H]5C(=O)[C@@]4(C)CC[C@@H]3[C@@]2(C)CC1,175,eChemPortal
CCCC[C@H]1C(=O)O[C@H](C)[C@H](NC(=O)c2cccc(NC=O)c2O)C(=O)O[C@@H](C)[C@@H]1OC(=O)CC(C)C,170,OCHEM
COc1ccc(Cl)cc1CCl,45,OCHEM
C=CCC1(C2C=CCC2)C(=O)NC(=O)NC1=O (stereo unspecified),140,OCHEM
Cc1ccc(C)c(C(=O)CCl)c1,29,OCHEM
ClCc1cn2cccnc2n1,126,OCHEM
Cc1cccc(N2CCNCC2)c1C,149,OCHEM
[C-]#[O+].[C-]#[O+].[C-]#[O+].[C-]#[O+].[Co+].[H-],-26.11,PubChem
Cc1ccc(C(=O)CBr)cc1C,64,OCHEM
C[C@@H]1C[C@H]2CC(=O)[C@H]3CCCN4CCC[C@H]2[C@]34C1,114,OCHEM
O=C(CCl)c1ccc(F)c(F)c1,38,OCHEM
CC1CCCC(C)N1C(=O)CCl (stereo unspecified),72,OCHEM
O=C(CCl)N1CCCC1=O,34,OCHEM
O=Cc1cc(CCl)ccc1O,88,OCHEM
NCc1ccc(Cl)nc1,29.5,OCHEM
C=C1C/C(=C/C)C(=O)O[C@@H]2CCN3CC=C(COC(=O)[C@@]1(O)CO)[C@H]23,187.2,PubChem
CCc1cccc(C)c1NC(=O)CCl,105,OCHEM
Clc1cnc(N2CCNCC2)c(Cl)c1,60,OCHEM
Cc1nc2ccccc2c(=O)n1-c1ccc(F)cc1,135,OCHEM
Nc1nc(N)nc(CCl)n1,222,OCHEM
Cn1c(=O)c2ncnnc2n(C)c1=O,178,OCHEM

A selection of 5 entries from above:

structure (SMILES)	MP (°C)	via
C=CCC1(C2C=CCC2)C(=O)NC(=O)NC1=O (stereo unspecified)	140	OCHEM
O=C(CCl)N1CCCC1=O	34	OCHEM
Cc1ccc(C(=O)CBr)cc1C	64	OCHEM
O=C(CCl)c1ccc(F)c(F)c1	38	OCHEM
COC1=CC2=CC[C@H]3[C@@H]4[C@@H]5C[C@@H]5C(=O)[C@@]4(C)CC[C@@H]3[C@@]2(C)CC1	175	eChemPortal

From the experimental data distributed with OPERA 2.9.